Source: paper PMC11164251 (International journal of biological macromolecules, 2023)

How the values were obtained:
Assay in all cases: ITC of HsLeo1 peptides with the HsTFIIS LW domain
HsTFIIS LW domain [1] = biological target: HsTFIIS LW domain (Homo sapiens, UniProt P23193); format: binding; conditions: pH 7.4, 25 °C
Outline: (§1)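 Recombinant N-His-tagged LW domain (wild type or point mutant), expressed in E. coli BL21 (DE3) (0.5 mM IPTG, 16 °C, 20 h) and purified by Ni-NTA, gel filtration and ion exchange. ITC: 50 uM protein in cell, 1mM synthetic Leo1 peptides in syringe, 16 × 2 μl injections at 120 s intervals. Buffer: 25 mM Tris, 200 mM NaCl, 1 mM EDTA, 1 % glycerol, pH 7.4, 25 °C. Peptide-into-buffer heat of dilution subtracted.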

HsTFIIS LW domain [2] = biological target: HsTFIIS LW domain (Homo sapiens, UniProt P23193, I70A); format: binding; conditions: HsTFIIS1–96 LW mutant I70A, pH 7.4, 200 mM NaCl, 25 °C
Outline: as §1

HsTFIIS LW domain [3] = biological target: HsTFIIS LW domain (Homo sapiens, UniProt P23193, K67A); format: binding; conditions: HsTFIIS1–96 LW mutant K67A, pH 7.4, 25 °C
Outline: as §1

HsTFIIS LW domain [4] = biological target: HsTFIIS LW domain (Homo sapiens, UniProt P23193, L41A); format: binding; conditions: HsTFIIS1–96 LW mutant L41A, pH 7.4, 200 mM NaCl, 25 °C
Outline: as §1

HsTFIIS LW domain [5] = biological target: HsTFIIS LW domain (Homo sapiens, UniProt P23193, W73A); format: binding; conditions: HsTFIIS1–96 LW mutant W73A, pH 7.4, 200 mM NaCl, 25 °C
Outline: as §1

HsTFIIS LW domain [6] = format: binding, Homo sapiens; conditions: HsTFIIS LW domain mutant printed as W339A
Outline: as §1

N (ITC binding stoichiometry) (HsTFIIS LW domain [1]; HsTFIIS1–78 LW): 1.00
N (ITC binding stoichiometry) (HsTFIIS LW domain [1]; wild type HsTFIIS1–96 LW): 1.00
Kd (HsTFIIS LW domain [2]): no binding
N (ITC binding stoichiometry) (HsTFIIS LW domain [3]): 1.00
Kd (HsTFIIS LW domain [4]): no binding
Kd (HsTFIIS LW domain [5]): no binding
binding (ITC), result in words (HsTFIIS LW domain [6]): abolishes the interactions
SMILES: CSCC[C@H](NC(=O)[C@H](CC(=O)O)NC(=O)[C@H](C)N)C(=O)N[C@@H](CCC(=O)O)C(=O)N[C@@H](CC(=O)O)C(=O)N[C@@H](CC(C)C)C(=O)N[C@@H](Cc1ccccc1)C(=O)NCC(=O)N[C@@H](CO)C(=O)N[C@@H](CC(=O)O)C(=O)N[C@@H](C)C(=O)N[C@@H](CC(=O)O)C(=O)N[C@@H](CO)C(=O)N[C@@H](CCC(=O)O)C(=O)N[C@@H](C)C(=O)O [HsLeo1_2–16]
